These sequences were tested on MDM2 SWIB. Conditions: library DMS-BM; bait MDM2 SWIB; prey TP53; peptide QETFSDLWKLLPENNV; columns = wild-type residues Q1-N15, rows = amino acid at that position.
Format: binding, human

| Sequence | DMS PSSM value (position-specific score of the amino acid at the position; each column sums to 1) |
| --- | --- |
| QETFSDLWKLLPENNV S5Q (QETFQDLWKLLPENNV) | 0.01961 |
| QETFSDLWKLLPENNV S5R (QETFRDLWKLLPENNV) | 0 |
| QETFSDLWKLLPENNV S5S | 0.07692 |
| QETFSDLWKLLPENNV S5T (QETFTDLWKLLPENNV) | 0.0594 |
| QETFSDLWKLLPENNV S5V (QETFVDLWKLLPENNV) | 0.04069 |
| QETFSDLWKLLPENNV S5W (QETFWDLWKLLPENNV) | 0.02557 |
| QETFSDLWKLLPENNV S5Y (QETFYDLWKLLPENNV) | 0.07701 |
| QETFSDLWKLLPENNV T3A (QEAFSDLWKLLPENNV) | 0.1263 |
| QETFSDLWKLLPENNV T3D (QEDFSDLWKLLPENNV) | 0.002131 |
| QETFSDLWKLLPENNV T3E (QEEFSDLWKLLPENNV) | 0.00229 |
| QETFSDLWKLLPENNV T3F (QEFFSDLWKLLPENNV) | 0.01081 |
| QETFSDLWKLLPENNV T3G (QEGFSDLWKLLPENNV) | 0.00229 |
| QETFSDLWKLLPENNV T3H (QEHFSDLWKLLPENNV) | 0.03154 |
| QETFSDLWKLLPENNV T3I (QEIFSDLWKLLPENNV) | 0.00229 |
| QETFSDLWKLLPENNV T3K (QEKFSDLWKLLPENNV) | 0.1416 |
| QETFSDLWKLLPENNV T3L (QELFSDLWKLLPENNV) | 0.00229 |
| QETFSDLWKLLPENNV T3M (QEMFSDLWKLLPENNV) | 0.00229 |
| QETFSDLWKLLPENNV T3N (QENFSDLWKLLPENNV) | 0.02336 |
| QETFSDLWKLLPENNV T3P (QEPFSDLWKLLPENNV) | 0 |
| QETFSDLWKLLPENNV T3Q (QEQFSDLWKLLPENNV) | 0.02158 |
| QETFSDLWKLLPENNV T3R (QERFSDLWKLLPENNV) | 0.006392 |
| QETFSDLWKLLPENNV T3S (QESFSDLWKLLPENNV) | 0.3652 |
| QETFSDLWKLLPENNV T3T | 0.0867 |

| Sequence | DMS PSSM value (position-specific score of the amino acid at the position; each column sums to 1) |
| --- | --- |
| QETFSDLWKLLPENNV T3V (QEVFSDLWKLLPENNV) | 0.02747 |
| QETFSDLWKLLPENNV T3W (QEWFSDLWKLLPENNV) | 0 |
| QETFSDLWKLLPENNV T3Y (QEYFSDLWKLLPENNV) | 0.1455 |
| QETFSDLWKLLPENNV W8A (QETFSDLAKLLPENNV) | 0 |
| QETFSDLWKLLPENNV W8D (QETFSDLDKLLPENNV) | 0 |
| QETFSDLWKLLPENNV W8E (QETFSDLEKLLPENNV) | 0.07688 |
| QETFSDLWKLLPENNV W8F (QETFSDLFKLLPENNV) | 0 |
| QETFSDLWKLLPENNV W8G (QETFSDLGKLLPENNV) | 0 |
| QETFSDLWKLLPENNV W8H (QETFSDLHKLLPENNV) | 0 |
| QETFSDLWKLLPENNV W8I (QETFSDLIKLLPENNV) | 0 |
| QETFSDLWKLLPENNV W8K (QETFSDLKKLLPENNV) | 0 |
| QETFSDLWKLLPENNV W8L (QETFSDLLKLLPENNV) | 0.1247 |
| QETFSDLWKLLPENNV W8M (QETFSDLMKLLPENNV) | 0 |
| QETFSDLWKLLPENNV W8N (QETFSDLNKLLPENNV) | 0 |
| QETFSDLWKLLPENNV W8P (QETFSDLPKLLPENNV) | 0 |
| QETFSDLWKLLPENNV W8Q (QETFSDLQKLLPENNV) | 0 |
| QETFSDLWKLLPENNV W8R (QETFSDLRKLLPENNV) | 0.01146 |
| QETFSDLWKLLPENNV W8S (QETFSDLSKLLPENNV) | 0 |
| QETFSDLWKLLPENNV W8T (QETFSDLTKLLPENNV) | 0 |
| QETFSDLWKLLPENNV W8V (QETFSDLVKLLPENNV) | 0 |
| QETFSDLWKLLPENNV W8W | 0.7869 |
| QETFSDLWKLLPENNV W8Y (QETFSDLYKLLPENNV) | 0 |
